From IntAct's records for PubMed 23549287

B1: DNA polymerase III subunit epsilon (Escherichia coli (strain K12)), P03007 (parent)
chain: MSTAITRQIVLDTETTGMNQIGAHYEGHKIIEIGAVEVVNRRLTGNNFHVYLKPDRLVDPEAFGVHGIADEFLLDKPTFAEVADEFMDYIRGAELVIHNAAFDIGFMDYEFSLLKRDIPKTNTFCKVTDSLAVARKMFPGKRNSLDALCARYEIDNSKRTLHGALLDAQILAEVYLAMTGGQTSMAFAMEGETQQQQGEATIQRIVRQASKLRVVFATDEEIAAHEARLDLVQKKGGSCLWRA
B2: DNA polymerase III subunit alpha (Escherichia coli (strain K12)), P10443 (parent)
chain: MSEPRFVHLRVHSDYSMIDGLAKTAPLVKKAAALGMPALAITDFTNLCGLVKFYGAGHGAGIKPIVGADFNVQCDLLGDELTHLTVLAANNTGYQNLTLLISKAYQRGYGAAGPIIDRDWLIELNEGLILLSGGRMGDVGRSLLRGNSALVDECVAFYEEHFPDRYFLELIRTGRPDEESYLHAAVELAEARGLPVVATNDVRFIDSSDFDAHEIRVAIHDGFTLDDPKRPRNYSPQQYMRSEEEMCELFADIPEALANTVEIAKRCNVTVRLGEYFLPQFPTGDMSTEDYLVKRAKEGLEERLAFLFPDEEERLKRRPEYDERLETELQVINQMGFPGYFLIVMEFIQWSKDNGVPVGPGRGSGAGSLVAYALKITDLDPLEFDLLFERFLNPERVSMPDFDVDFCMEKRDQVIEHVADMYGRDAVSQIITFGTMAAKAVIRDVGRVLGHPYGFVDRISKLIPPDPGMTLAKAFEAEPQLPEIYEADEEVKALIDMARKLEGVTRNAGKHAGGVVIAPTKITDFAPLYCDEEGKHPVTQFDKSDVEYAGLVKFDFLGLRTLTIINWALEMINKRRAKNGEPPLDIAAIPLDDKKSFDMLQRSETTAVFQLESRGMKDLIKRLQPDCFEDMIALVALFRPGPLQSGMVDNFIDRKHGREEISYPDVQWQHESLKPVLEPTYGIILYQEQVMQIAQVLSGYTLGGADMLRRAMGKKKPEEMAKQRSVFAEGAEKNGINAELAMKIFDLVEKFAGYGFNKSHSAAYALVSYQTLWLKAHYPAEFMAAVMTADMDNTEKVVGLVDECWRMGLKILPPDINSGLYHFHVNDDGEIVYGIGAIKGVGEGPIEAIIEARNKGGYFRELFDLCARTDTKKLNRRVLEKLIMSGAFDRLGPHRAALMNSLGDALKAADQHAKAEAIGQADMFGVLAEEPEQIEQSYASCQPWPEQVVLDGERETLGLYLTGHPINQYLKEIERYVGGVRLKDMHPTERGKVITAAGLVVAARVMVTKRGNRIGICTLDDRSGRLEVMLFTDALDKYQQLLEKDRILIVSGQVSFDDFSGGLKMTAREVMDIDEAREKYARGLAISLTDRQIDDQLLNRLRQSLEPHRSGTIPVHLYYQRADARARLRFGATWRVSPSDRLLNDLRGLIGSEQVELEFD

Variants of: B1
Conditions: with dpo3b_ecoli dnaN

| effect of a mutation on the interaction | Variant |
| --- | --- |
| disrupting interaction | MSTAITRQIVLDTETTGMNQIGAHYEGHKIIEIGAVEVVNRRLTGNNFHVYLKPDRLVDPEAFGVHGIADEFLLDKPTFAEVADEFMDYIRGAELVIHNAAFDIGFMDYEFSLLKRDIPKTNTFCKVTDSLAVARKMFPGKRNSLDALCARYEIDNSKRTLHGALLDAQILAEVYLAMTGGQTSMAAAMEGETQQQQGEATIQRIVRQASKLRVVFATDEEIAAHEARLDLVQKKGGSCLWRA [F187A] |
| disrupting interaction | MSTAITRQIVLDTETTGMNQIGAHYEGHKIIEIGAVEVVNRRLTGNNFHVYLKPDRLVDPEAFGVHGIADEFLLDKPTFAEVADEFMDYIRGAELVIHNAAFDIGFMDYEFSLLKRDIPKTNTFCKVTDSLAVARKMFPGKRNSLDALCARYEIDNSKRTLHGALLDAQILAEVYLAMTGGQTSAAFAMEGETQQQQGEATIQRIVRQASKLRVVFATDEEIAAHEARLDLVQKKGGSCLWRA [M185A] |

Variants of: B2
Conditions: with dpo3b_ecoli dnaN

| effect of a mutation on the interaction | Variant |
| --- | --- |
| decreasing interaction | M923A;F924A |
